Among all 2,300 compounds or so, about 1,400 (61%) were called active. So high a share suggests a set chosen from earlier hits. Listed are the inconclusive results; actives and inactives stand elsewhere. Calls follow the shape of the dose curve; as a rule, active = well fitted inhibition curve with a large enough effect; inconclusive = small, poorly fitted or top-dose-only effect, or effect the other way; inactive = no such curve, though single readings can be large or run the other way.
Assay: Confirmation screen for delayed death inhibitors of the malarial parasite plastid, 96 hour incubation; also: nearly all actives have a fitted effect of over 60% in size
Conditions: P. falciparum luciferase growth in erythrocytes
Potency is read from the fitted curve at half-maximal effect.

SMILES	Potency
NC(=O)Nc1ccc([As](=O)(O)O)cc1	inconclusive: 15.8 µM
